Experimental findings from article PMC10795032 (ACS Omega, 2024) are described below.

The assay has as its system pEGFR. Kind of assay: Western blot, EGF-stimulated phosphorylation of EGFR. The following applies: U87-MG, 5 μM, 24 h, then EGF 50 ng/mL 15 min. (A western blot detects proteins with antibodies after separation by electrophoresis.)

With `COc1cc2ncnc(Nc3ccc(F)c(Cl)c3)c2cc1OCCCN1CCOCC1` [Gefitinib], the pEGFR expression entry is reported as “significantly downregulated”.
